Literature values in paper PMC9491098, “Discovery of novel drug-like antitubercular hits targeting the MEP pathway enzyme DXPS by strategic application of ligand-based virtual screening” (Chemical Science, 2022).

Tested on: H. influenzae
Conditions: Fig. 1A; cited from earlier work

CC1(C)C(=O)ON(Cc2ccccc2Cl)C1=O [Ketoclomazone, ketoclomazone]
Activity on target pathogen: MIC: 49 µM
